Protein sequences, listed by entry. Tags and fused reporters are not part of them. Lines headed by an entry give the natural chain unless they say otherwise; changes in a name come on top.
UniProt P00797: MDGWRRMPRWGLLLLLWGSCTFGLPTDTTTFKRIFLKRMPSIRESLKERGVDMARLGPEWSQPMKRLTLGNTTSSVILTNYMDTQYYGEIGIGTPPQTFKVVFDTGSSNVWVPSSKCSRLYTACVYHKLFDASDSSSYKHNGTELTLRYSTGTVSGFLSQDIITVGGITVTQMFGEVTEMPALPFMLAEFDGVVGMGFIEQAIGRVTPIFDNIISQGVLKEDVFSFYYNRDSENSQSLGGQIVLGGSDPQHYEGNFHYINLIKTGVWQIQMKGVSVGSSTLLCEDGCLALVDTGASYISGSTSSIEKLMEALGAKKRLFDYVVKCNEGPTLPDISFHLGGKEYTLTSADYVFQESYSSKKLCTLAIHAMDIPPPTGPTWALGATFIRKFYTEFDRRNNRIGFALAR

In ChEMBL document CHEMBL4118173, “Discovery of benzimidazole derivatives as orally active renin inhibitors: Optimization of 3,5-disubstituted piperidine to improve pharmacokinetic profile” (Bioorg Med Chem, 2018):

Key:
Renin [1] = molecular target: T1, Renin (Homo sapiens, UniProt P00797)
Renin [2] = molecular target: T1, Renin; remark: listed apart in the source
Renin [3] = molecular target: T1, Renin; remark: listed apart in the source

COCCCCn1c(C(=O)N(CC(C)C)[C@@H]2CNC[C@H](C(=O)N3CCOCC3)C2)nc2ccccc21
IC50 (Renin [1]): 1.4 nM
IC50 (Renin [2]): 0.43 nM
IC50 (Renin [3]): 0.84 nM
